This note sets out measurements from patent US20040180081A1, “Compositions and kits for the removal of irritating compounds from bodily surfaces” (published 2004).

This data set can be described thus: Solubility of capsaicin in various substances (sonication, visual evaluation). The following applies: 90 minutes sonication, water bath to approx. 40° C.

As for Ethoxydiglycol, the “Capsaicin Solubility (% w/w)” value is on record as >50 % w/w.

Turning to Octyldodecanol, the “Capsaicin Solubility (% w/w)” value is reported as <5.2 % w/w.
